Screening data deposited in PubChem by National Center for Advancing Translational Sciences (NCATS).
TDP1 inh: blocks human tyrosyl-DNA phosphodiesterase 1; Potency, µM (titrated, usually from 130 µM), for the others: at the highest dose activity change, negative = inhibition, hits mostly inhibitors; Q9NUW8; recombinant TDP1, AlphaScreen DNA substrate cleavage; AID 485290; 0.28% of 350,000 active; also: potency is read from the fitted curve at half-maximal effect; % is scaled to controls: 0 for no effect and ±100 for the full control effect; nearly all actives have a fitted effect of over 40% in size
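Recombinant E. coli-expressed Tdp1 (1 nM) preincubated with compound 15 min at RT, then 5'-biotin/3'-phosphotyrosine-FITC DNA substrate (15 nM) added for 5 min. AlphaScreen beads (10 ug/ml) added, 10 min RT; tyrosine-FITC cleavage read as signal loss.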
TDP1 cell CPT: growth inhibition of DT40 Tdp1-/-;hTDP1 cells with camptothecin (screen for TDP1 inhibitors). chicken DT40 Tdp1-/-;hTDP1 cells + 20 nM CPT, ATP luminescence, 48 h. Potency, µM (series often up to 46.2 µM), for inactives: top-dose activity change, negative = growth inhibition, most hits filed as inhibitors. 12% of 420,000 active; also: potency is read from the fitted curve at half-maximal effect; % is scaled to controls: 0 for no effect and ±100 for the full control effect; nearly all actives have a fitted effect of over 55% in size
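Chicken DT40 Tdp1-/- cells stably complemented with human TDP1 were seeded at 400 cells/well in medium containing 20 nM camptothecin, exposed to pin-transferred compounds, and grown at 37 °C for at least 48 hr. Viability was read as ATP luminescence.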
miR-21 FLuc: miR-21 reporter, rising signal | HeLa miR-21 FLuc reporter, luciferase, 48 h | Potency, µM (top dose mostly 38.3 µM), inactives show at the top dose reporter change, positive = more light | 340,000 tested, under 10 active | AID 2288; active = well fitted rising curve with a large enough effect; inconclusive = small, poorly fitted or top-dose-only effect; inactive = no such curve, though single readings can be large or run the other way;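 further: % of control where 0% means no effect; miR-21 action dims this reporter so a rising signal means less miR-21 action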
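Luminescence from a firefly luciferase reporter carrying a miR-21 binding site downstream, stably expressed under a CMV promoter in HeLa cells that make miR-21 endogenously, reports miRNA modulation after 48 h compound exposure up to approximately 40uM final.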
TDP1 cell noCPT: qHTS for Inhibitors of human tyrosyl-DNA phosphodiesterase 1 (TDP1): qHTS in cells in absence of CPT | AID 686978, 2013 | Potency, µM (highest dose often 46.2 µM), inactives show at the highest dose activity change, negative = growth inhibition, hits mostly inhibitors | DT40 Tdp1-/- hTDP1 cells, no CPT, ATP luminescence, 48 h | 15% of 420,000 active; also: potency is read from the fitted curve at half-maximal effect; % is scaled to controls: 0 for no effect and ±100 for the full control effect; nearly all actives have a fitted effect of over 55% in size
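No-CPT arm: Tdp1-/-;hTDP1 DT40 cells (400/well) plus compounds, incubated ≥48 hr at 37 °C. Readout CellTiter-Glo luminescence.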
uPA generation: cell surface uPA generation inhibition; Potency, µM (top dose mostly 38.3 µM), inactives show at the top dose activity change, negative = inhibition, actives largely listed as inhibitors; 0.31% of 330,000 active; cell surface uPA generation assay, qHTS; AID 540303; active = well fitted inhibition curve with a large enough effect; inconclusive = small, poorly fitted or top-dose-only effect; inactive = no such curve, though single readings can be large or run the other way; tested in mouse RAW 264.7 cells; also: potency is read from the fitted curve at half-maximal effect; % is scaled to controls: 0 for no effect and ±100 for the full control effect; nearly all actives have a fitted effect of over 55% in size
An asterisk follows results filed as active; ? = inconclusive; . = no result given; [ ] = remark or other dose. Rows were chosen to be rich in hits. Some 16% of all compounds tested hit in one or more screens of this group. Unless noted, calls follow the shape of the dose curve; as a rule, active = well fitted curve in the direction sought with a large enough effect; inconclusive = small, poorly fitted or top-dose-only effect, or another doubt; inactive = no such curve, though single readings can be large; an effect the other way counts as inactive or inconclusive.

SMILES | TDP1 cell noCPT | uPA generation | miR-21 FLuc | TDP1 cell CPT | TDP1 inh
O=C1c2ccccc2C(Nc2ccc3c(c2)OCO3)N1Cc1ccc2c(c1)OCO2 (configuration not stated) | 14.6µM* | -9.4% | -37.7% | ? | 0.0%
Cc1ccc(C(=O)c2oc3ccccc3c2NC(=O)c2cc(-c3cc(C)ccc3O)n[nH]2)cc1 | 13µM* | 9.6% | -2.7% | 16.4µM* | .
O=C(Nc1c(C(=O)c2ccccc2)oc2ccccc12)c1cc(-c2ccccc2O)n[nH]1 | 18.4µM* | 2.4% | -15.1% | 20.6µM* | 1.2%
CC(C)(C)c1ccc(C(=O)Nc2c(C(=O)c3ccc(F)cc3)oc3ccccc23)cc1 | . | . | -8.7% | . | -5.3%
Cc1ccc(C(=O)c2oc3ccccc3c2NC(=O)c2cc(-c3ccccc3O)n[nH]2)cc1 | 10.3µM* | 5.3% | -7.9% | 25.9µM* | 1.2%
CCOc1ccc(NC(=O)CN(C)CC(=O)Nc2ccc(F)c(F)c2F)cc1OCC | -29.4% | -1.9% | -3.5% | -1.4% | 0.5%
CCCCN(C(=O)c1ccc(S(=O)(=O)N2CCCCC2)cc1)C1CCS(=O)(=O)C1 (configuration not stated) | -23.2% | -23.5% | . | ? | .
N#Cc1nnn(Cc2ccccc2)c1N | -41.9% | -18.2% | -4.3% | 0.0% | 6.1%
O=c1cc(C(F)(F)F)nc(-c2cccnc2)[nH]1 | 3.3% | -0.1% | -1.4% | 4.6% | 0.0%
COc1ccccc1CCNC(=O)c1ccc(-c2nc(CSc3ccc(C)cc3)c(C)o2)cc1 | 8.2µM* | . | 4.7% | 16.4µM* | 0.0%
CC(=O)c1ccc(NC(=O)c2ccc(-c3nc(CSc4ccc(C)cc4)c(C)o3)cc2)cc1 | ? | . | 6.8% | ? | 5.6%
CCOc1ccc(CCNC(=O)c2ccc(-c3nc(CSc4ccc(C)cc4)c(C)o3)cc2)cc1 | -5.2% | . | -2.1% | -2.3% | 0.0%
COc1ccc(CNC(=O)c2ccc(-c3nc(CSc4ccc(C)cc4)c(C)o3)cc2)c(OC)c1 | ? | . | 2.5% | 8.2µM* | 2.8%
CCOc1ccccc1CNC(=O)c1ccc(-c2nc(CSc3ccc(C)cc3)c(C)o2)cc1 | 13µM* | . | -1.0% | 9.2µM* | 5.6%
Cc1ccc(SCc2nc(-c3ccc(C(=O)NCc4ccc(Cl)cc4)cc3)oc2C)cc1 | 9.2µM* | . | 0.0% | 14.6µM* | 2.8%
COc1ccc(CNC(=O)c2ccc(-c3nc(CSc4ccccc4)c(C)o3)cc2)c(OC)c1 | -27.3% | . | 1.8% | -3.3% | 0.0%
CCN(CC)C(=O)Nc1ccc(OCC(O)CNC(C)(C)C)c(C(C)=O)c1 (configuration not stated) | -9.6% | . | . | 1.7% | .
COc1ccc(CNCC(O)COc2ccc(C)cc2[N+](=O)[O-])cc1 (configuration not stated) | ? | -4.5% | -55.5% | ? | 2.6%
Cc1ccc(/C=C(\C#N)C(=O)Nc2c(C)cccc2C)s1 | 20.6µM* | -4.0% | -5.3% | ? | 4.6%
COC(=O)c1ccc(COc2ccccc2/C=C(\C#N)C(=O)Nc2c(C)cccc2C)cc1 | 13µM* | -7.3% | 10.7% | 13µM* | 0.0%
COc1cc(OC)c2c(c1)OC1Cc3cc(OC)c(OC)cc3C2O1 (configuration not stated) | . | . | . | . | 8.2%[21 µM]
COC(=O)[C@@]12C[C@@H](CC(=O)NCCC(C)C)C(=O)N(CCc3ccc(OC)c(OC)c3)C1=CCC(C)(C)C2 | 20.6µM* | . | . | ? | .
CCCCOCCCNC(=O)C[C@@H]1C[C@@]2(C(=O)OC)CC(C)(C)CC=C2N(CCc2ccc(OC)c(OC)c2)C1=O | 14.6µM* | . | . | ? | .
COc1ccc(C(=O)N2CCN(c3nnnn3-c3ccccc3)CC2)cc1OC | 1.8% | 0.2% | -6.7% | -2.3% | 8.8%
CCCCCCCCN1C(=O)[C@H](CC(=O)N2CCN(C(=O)OCC)CC2)C[C@@]2(C(=O)OC)CC(C)(C)CC=C12 | 13µM* | . | . | 13µM* | .
CCCCCCCCN1C(=O)[C@H](CC(=O)N2CCN(C(=O)C3CC3)CC2)C[C@@]2(C(=O)OC)CC(C)(C)CC=C12 | 14.6µM* | . | . | 14.6µM* | .
COc1ccc(NC(=O)c2oc3ccc(S(=O)(=O)N4CCC5(CC4)OCCO5)cc3c2C)cc1 | ? | . | 27.7% | 15.8µM* | 8.4%
Cc1c(C(=O)Nc2cccc(C(F)(F)F)c2)oc2ccc(S(=O)(=O)N3CCC4(CC3)OCCO4)cc12 | 9.2µM* | . | 28.6% | 14.6µM* | 10.4%
Cc1cccc(NC(=O)c2oc3ccc(S(=O)(=O)N4CCC5(CC4)OCCO5)cc3c2C)c1C | 18.4µM* | . | 29.6% | 16.4µM* | 0.0%
c1ccc(-c2nc(-c3cccc4ccccc34)c(NC3CCCCC3)o2)cc1 | . | . | . | . | 8.7%
Cc1cccc(C(=Cc2ccc([N+](=O)[O-])cc2)C(=O)O)c1 | ? | . | . | -23.8% | .
C=CCn1c(SCC(=O)c2ccc(CNC(C)=O)o2)nc2scc(C3CC3)c2c1=O | ? | 2.3% | -11.3% | ? | 2.4%
NC(=S)Nc1ccc(Oc2ccc(NC(N)=S)cc2)cc1 | -15.3% | -22.2% | 19.9% | -23.4% | 5.4%
O=C(CSC1=NNC(c2ccccn2)S1)Nc1cccc(Cl)c1 (configuration not stated) | 1.84µM* | 1.1% | -0.6% | 1.84µM* | .
O=C(NCc1ccccn1)Nc1cccc(Cl)c1 | -0.3% | 3.4% | -46.4% | -9.0% | 10.1%
O=C(CSC1=NNC(c2ccccn2)S1)Nc1ccccc1 (configuration not stated) | 1.84µM* | ? | 14.1% | 2.06µM* | .
O=C(CSc1nnc(-c2ccccn2)o1)Nc1ccccc1 | -1.1% | -1.0% | -40.6% | 0.0% | -2.5%
Cc1nc(NC(=O)c2cc3ccccc3o2)sc1C | -1.4% | -7.5% | 0.3% | -1.0% | 0.4%
COc1ccccc1N1CCN(S(=O)(=O)c2c(C)sc3ncn(CC(=O)Nc4ccc(C(F)(F)F)cc4)c(=O)c23)CC1 | ? | . | -0.8% | 16.4µM* | 2.9%
COc1ccccc1N1CCN(S(=O)(=O)c2c(C)sc3ncn(CC(=O)NCCN(C)C)c(=O)c23)CC1 | -12.2% | 4.0% | 7.4% | 14.6% | 8.5%
CCCN(CCC)CCNC(=O)Cn1cnc2sc(C)c(S(=O)(=O)N3CCN(c4ccccc4OC)CC3)c2c1=O | 14.6µM* | . | -0.2% | ? | 5.9%
O=C1[C@@H](Oc2ccccc2)[C@@H](c2cccnc2)N1c1ccccc1 | 18.4µM* | ? | . | 20.6µM* | .
O=C1[C@H](Oc2ccccc2)[C@@H](c2ccccc2)N1c1ccncc1 | 23.1µM* | ? | . | ? | .
O=C1[C@@H](Oc2ccccc2)[C@@H](c2ccccc2)N1c1ccccc1 | -27.2% | 4.3% | . | -18.6% | .

Among those listed so far, these have a cyano group:
SMILES | TDP1 cell noCPT | uPA generation | miR-21 FLuc | TDP1 cell CPT | TDP1 inh
N#Cc1nnn(Cc2ccccc2)c1N | -41.9% | -18.2% | -4.3% | 0.0% | 6.1%
Cc1ccc(/C=C(\C#N)C(=O)Nc2c(C)cccc2C)s1 | 20.6µM* | -4.0% | -5.3% | ? | 4.6%
COC(=O)c1ccc(COc2ccccc2/C=C(\C#N)C(=O)Nc2c(C)cccc2C)cc1 | 13µM* | -7.3% | 10.7% | 13µM* | 0.0%

Record cards, from the list above. Screens in order: TDP1 cell noCPT, uPA generation, miR-21 FLuc, TDP1 cell CPT, TDP1 inh
COc1ccccc1N1CCN(S(=O)(=O)c2c(C)sc3ncn(CC(=O)NCCN(C)C)c(=O)c23)CC1 is listed with -12.2%, 4.0%, 7.4%, 14.6%, 8.5%
O=C1[C@@H](Oc2ccccc2)[C@@H](c2ccccc2)N1c1ccccc1 is listed with -27.2%, 4.3%, ., -18.6%, .
